Measurements published in patent US7709465B2, “Phosphorous containing compounds including triphenylmethylphosphonate esters for the treatment of melanoma and other cancers” (The Board of Trustees of the University of Illinois, priority 2006, dated 2010).

Tested on: UACC-62 cells
Test: High-throughput Cell Death Assay I, UACC-62 melanoma cells
Settings: read-out: IC50 (μM) at 72 hours
Method: High-throughput Cell Death Assay I on Test Compounds: U-937 and HL-60 cells from cell culture are harvested by centrifugation at 250×g for 5 min. Cells are then resuspended in RPMI 1640+10% FBS, counted using a hemocytometer and diluted so that 20,000 cells are seeded into each well of a Corning 96-well flat bottom microtiter plate (Fisher, Chicago Ill.). Media is then added to bring the total volume of each well to 100 μL. Test compounds are transferred into the wells using a 96-pin transfer apparatus (V & P Scientific, San Diego Calif.) that transfers 0.2 μL of compound. The compounds are made up as 50 mM stock solutions in 100% EtOH, so one transfer gives a final concentration of 100 microM. […] The cells are incubated with the compounds for 24 hours, and then cell death is quantitated. This quantitation is performed by addition of 20 microL of the MTS/PMS CellTiter 96 Cell Proliferation Assay reagent (Promega, Madison Wis.) to each well; this reagent is 3-(4,5-dimethylthiazol-2-yl)-5-(3-carboxymethoxyphenyl)-2-(4-sulfophenyl)-2H-tetrazolium, inner salt (MTS), and an electron coupling reagent, phenazine methosulfate (PMS). […]
The plates are incubated at 37° C. for approximately one hour until the colored product formed and the absorbance was then measured at 490 nm in a Spectra Max Plus 384 plate reader (Molecular Devices, Sunnyvale Calif.). […]

SMILES | IC50 [µM]
C#CCOP(=O)(Cl)C(c1ccccc1)(c1ccccc1)c1ccccc1 (centres unmarked) | 7.19
CC#CCOP(=O)(Cl)C(c1ccccc1)(c1ccccc1)c1ccccc1 (centres unmarked) | 17.5
